Source: publication PMC2861356 (Clinical cancer research : an official journal of the …, 2009)

Assay: Nilotinib serum pharmacokinetics at steady-state
Conditions: for Nilotinib AUC0-t, mean±SD / Nilotinib Cavg, mean±SD / Nilotinib Cmax, mean±SD / Nilotinib tmax, median (range): steady-state Day 8 or 15; for Nilotinib CL/F, mean±SD: steady-state
[1] = Cohort 2 n=6: nilotinib 200 mg qd, imatinib 400 mg bid
[2] = Cohort 3 n=6: nilotinib 400 mg qd, imatinib 400 mg bid
[3] = Cohort 4 n=5: nilotinib 400 mg bid, imatinib 400 mg bid
[4] = Cohort 5 n=12: nilotinib 400 mg bid, imatinib 400 mg qd

For Cc1cn(-c2cc(NC(=O)c3ccc(C)c(Nc4nccc(-c5cccnc5)n4)c3)cc(C(F)(F)F)c2)cn1 [Nilotinib], the “Nilotinib AUC0-t, mean±SD” value [1] was 10474 ± 3491 ng·h/mL, the “Nilotinib Cavg, mean±SD” value [1] was 438 ± 150 ng/mL and the “Nilotinib CL/F, mean±SD” value (Cohort 2 n=6: nilotinib 200 mg qd, imatinib 400 mg bid, estimated as dose/AUC0-t) was 21.5 ± 9.3 L/h. The “Nilotinib Cavg, mean±SD” value [2] was 863 ± 472 ng/mL, the “Nilotinib Cmax, mean±SD” value [2] was 1236 ± 705 ng/mL and the “Nilotinib tmax, median (range)” value [2] was 6.4 (1.9-23.8) h. For the same compound, the “Nilotinib CL/F, mean±SD” value (Cohort 3 n=6: nilotinib 400 mg qd, imatinib 400 mg bid, estimated as dose/AUC0-t) was 25.6 ± 13.8 L/h, the “Nilotinib AUC0-t, mean±SD” value [3] was 18717 ± 8516 ng·h/mL and the “Nilotinib Cavg, mean±SD” value [3] was 1617 ± 610 ng/mL. The “Nilotinib Cmax, mean±SD” value [3] was 2160 ± 756 ng/mL, the “Nilotinib tmax, median (range)” value [3] was 2.1 (0-12.5) h and the “Nilotinib CL/F, mean±SD” value (Cohort 4 n=5: nilotinib 400 mg bid, imatinib 400 mg bid, estimated as dose/AUC0-t) was 24.8 ± 10.0 L/h. For the same compound, the “Nilotinib CL/F, mean±SD” value (Cohort 5: nilotinib 400 mg bid, imatinib 400 mg qd, n=3, estimated as dose/AUCτ) was 19.1 ± 6.1 L/h, the “Nilotinib AUC0-t, mean±SD” value [4] was 16760 ± 9450 ng·h/mL and the “Nilotinib Cavg, mean±SD” value [4] was 1642 ± 701 ng/mL. The “Nilotinib Cmax, mean±SD” value [4] was 2509 ± 1266 ng/mL and the “Nilotinib tmax, median (range)” value [4] was 0 (0-5.0) h.
